PMC10853020 (Journal of medicinal chemistry, 2023)

Test system: hMDRI-MDCKII cells
Assay: MDCK-MDR1 permeability
Conditions: from efflux ratios in absence or presence of P-gp inhibitor

CCCCCCCC/C=C\CCCCCCCC(=O)NC(CO)(CO)CO [Compound 13, N-(1,3-Dihydroxy-2-(hydroxymethyl)propan-2-yl)oleamide]
P-gp substrate: not a predicted substrate for P-gp
